Literature values in patent US20230110028A1, “OXYBATE POLYETHYLENE GLYCOL PRODRUGS” (Tris Pharma, Inc., priority 2021, published 2023).

Hydroxypropyl-γ-cyclodextrin
Solubility: ≥500 mg/mL
